This series can be described thus: Water solubility, modified ASTM-D1766.

Turning to Zinc Dodecanedioate Triethanolamine, the Solubility description result (Table VI) is on record as “PINS (practically insoluble (<.1 g/100cc H2 O))”. The Solubility result (modified ASTM-D1766) was “.001 g/100cc H2 O”.

Source of the values: patent US4626283A, “Corrosion and marine growth inhibiting compositions” (Engelhard Corporation, priority 1985, dated 1986).
